From ChEMBL document CHEMBL1932952, “Synthesis and biochemical analysis of 2,2,3,3,4,4,5,5,6,6,7,7-dodecafluoro-N-hydroxy-octanediamides as inhibitors of human histone deacetylases” (Bioorg Med Chem, 2012)

Molecular target: T1, Histone deacetylase-like amidohydrolase (Alcaligenes sp. (strain DSM 11172) (Bordetella sp. (strain FB188)), UniProt Q70I53)
T1 sequence (Q70I53 whole entry): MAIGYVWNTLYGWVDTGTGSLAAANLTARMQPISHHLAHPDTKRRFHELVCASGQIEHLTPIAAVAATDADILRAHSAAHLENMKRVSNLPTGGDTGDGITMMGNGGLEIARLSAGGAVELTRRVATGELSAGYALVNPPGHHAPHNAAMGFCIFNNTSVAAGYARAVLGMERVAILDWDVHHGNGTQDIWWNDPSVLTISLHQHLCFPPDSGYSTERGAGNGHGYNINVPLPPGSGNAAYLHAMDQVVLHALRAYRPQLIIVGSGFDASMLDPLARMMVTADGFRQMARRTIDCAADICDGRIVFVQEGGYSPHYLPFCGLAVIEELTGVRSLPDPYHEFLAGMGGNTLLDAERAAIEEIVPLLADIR
Test: Inhibition of Bordetella FB188 HDAH using Boc-L-Lys(acetyl)-MCA as substrate by fluorogenic enzymatic assay
How it was run: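 Two-step fluorogenic assay with purified recombinant HDAH. Substrate (20 µM final) is deacetylated, then trypsin releases 7-amino-4-methylcoumarin (ex 390, em 460 nm). […] Ki derived from IC50 by Cheng–Prusoff.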

Kd: 300 nM
Compound: O=C(CCCCCCC(=O)Nc1ccccc1)NO [VORINOSTAT]
